The chains behind the UniProt entries cited, without tags or fusion partners. Where a name states a change or a piece, a line headed by the entry shows the natural chain unless it says otherwise.
UniProt P41145: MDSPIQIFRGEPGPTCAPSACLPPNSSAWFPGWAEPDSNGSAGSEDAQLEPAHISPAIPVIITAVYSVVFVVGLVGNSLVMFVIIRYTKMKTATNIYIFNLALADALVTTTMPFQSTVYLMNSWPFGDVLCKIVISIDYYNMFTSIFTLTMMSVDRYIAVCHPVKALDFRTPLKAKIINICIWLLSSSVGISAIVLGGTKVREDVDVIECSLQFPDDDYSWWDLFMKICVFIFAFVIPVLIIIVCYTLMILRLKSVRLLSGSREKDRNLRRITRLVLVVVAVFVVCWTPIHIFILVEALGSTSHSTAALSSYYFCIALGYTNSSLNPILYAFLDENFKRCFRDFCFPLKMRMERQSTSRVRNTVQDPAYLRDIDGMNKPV
UniProt P35372: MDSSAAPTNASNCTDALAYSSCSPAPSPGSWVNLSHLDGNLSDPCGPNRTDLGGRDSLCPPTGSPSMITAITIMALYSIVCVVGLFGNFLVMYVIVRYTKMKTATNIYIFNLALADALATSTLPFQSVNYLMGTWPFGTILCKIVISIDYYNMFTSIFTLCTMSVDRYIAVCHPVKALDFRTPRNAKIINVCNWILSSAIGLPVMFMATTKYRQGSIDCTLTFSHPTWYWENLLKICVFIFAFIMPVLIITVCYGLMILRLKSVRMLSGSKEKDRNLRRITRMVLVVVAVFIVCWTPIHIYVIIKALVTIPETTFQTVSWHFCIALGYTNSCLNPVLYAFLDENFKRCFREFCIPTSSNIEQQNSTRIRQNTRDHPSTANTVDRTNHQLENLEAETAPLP
UniProt P41143: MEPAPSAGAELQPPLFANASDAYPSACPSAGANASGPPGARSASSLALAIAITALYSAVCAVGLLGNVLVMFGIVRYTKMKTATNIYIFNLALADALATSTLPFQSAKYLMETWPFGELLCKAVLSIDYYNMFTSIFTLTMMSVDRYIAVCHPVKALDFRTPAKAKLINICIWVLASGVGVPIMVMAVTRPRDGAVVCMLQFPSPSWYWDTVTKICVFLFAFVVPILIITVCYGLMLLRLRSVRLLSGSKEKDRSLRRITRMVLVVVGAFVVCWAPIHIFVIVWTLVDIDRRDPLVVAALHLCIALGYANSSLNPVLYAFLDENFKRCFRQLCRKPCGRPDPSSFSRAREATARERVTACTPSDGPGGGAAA

In patent publication US20240301023A1, “PEPTIDES AND USES THEREOF” (priority 2020, published 2024):

How the values were obtained:
[1] = molecular target: Kappa opioid receptor (KOR) (Homo sapiens, UniProt P41145); test: cAMP assay (ALPHAScreen cAMP kit) in HEK 293 cells overexpressing KOR; type: cell-based; settings: forskolin-stimulated HEK 293 KOR cells; for cAMP assay KOR 1 μM: test compound 1 μM; for cAMP assay KOR 10 μM: test compound 10 μM
Mu opioid receptor (MOR) = Mu opioid receptor (MOR) (Homo sapiens, UniProt P35372); test: cAMP assay (ALPHAScreen cAMP kit) in HEK 293 cells overexpressing MOR; type: cell-based; settings: forskolin-stimulated HEK 293 MOR cells; for cAMP assay MOR 1 μM: test compound 1 μM; for cAMP assay MOR 10 μM: test compound 10 μM
[2] = molecular target: Delta opioid receptor (DOR) (Homo sapiens, UniProt P41143); settings: forskolin-stimulated HEK 293 DOR cells; for cAMP assay DOR 1 μM: test compound 1 μM; for cAMP assay DOR 10 μM: test compound 10 μM
Further: unit not given here.

NH2-Tyr-Sar-(4-NO2)Phe-Leu-DLys-DArg-NH2
cAMP assay KOR 1 μM [1]: 8.47 | cAMP assay KOR 10 μM [1]: 25.11 | cAMP assay MOR 1 μM (Mu opioid receptor (MOR)): −1.27 | cAMP assay MOR 10 μM (Mu opioid receptor (MOR)): 0.02 | cAMP assay DOR 1 μM [2]: −3 | cAMP assay DOR 10 μM [2]: −0.95

NH2-Phe-Sar-(4-NO2)Phe-Leu-DArg-DArg-NH2
cAMP assay KOR 1 μM [1]: 2.46 | cAMP assay KOR 10 μM [1]: 23.06 | cAMP assay MOR 1 μM (Mu opioid receptor (MOR)): −0.97 | cAMP assay MOR 10 μM (Mu opioid receptor (MOR)): −0.64 | cAMP assay DOR 1 μM [2]: −0.5 | cAMP assay DOR 10 μM [2]: 1.83

NH2-Tyr-Gaba-Phe-Leu-Arg-Arg-NH2
cAMP assay KOR 1 μM [1]: 4.23 | cAMP assay KOR 10 μM [1]: 22.91 | cAMP assay MOR 1 μM (Mu opioid receptor (MOR)): −6.78 | cAMP assay MOR 10 μM (Mu opioid receptor (MOR)): 7.28 | cAMP assay DOR 1 μM [2]: 2.57 | cAMP assay DOR 10 μM [2]: 19.55
